We go through 1 molecule from article PMC6344135, “Analgesic effects of the cathepsin K inhibitor L-006235 in the monosodium iodoacetate model of osteoarthritis pain” (Pain Reports, 2018).

Series [1] deals with monosodium iodoacetate rat model of OA pain. Description: Weight-bearing asymmetry in the MIA model of OA pain. The method, then: Rats were briefly anesthetized (isoflurane 2.5%–3% in 100% O2), and once areflexic received a single intra-articular injection of 1 mg MIA (Sigma, Gillingham, Dorset, United Kingdom) in 50-μL saline or 50-μL saline through the infrapatellar ligament of the left knee.[37] Pain behaviour was assessed at baseline before injection (day 0) and then after intra-articular injection twice weekly. Weight distribution on the left (ipsilateral) and right (contralateral) hind limb was assessed using an incapacitance tester (Linton Instrumentation Diss, Norfolk, United Kingdom) as previously described.[37] Changes in hind paw withdrawal thresholds (PWTs) were assessed using von Frey monofilaments; Linton Instrumentation, Norfolk, United Kingdom (Semmes-Weinstein monofilaments of bending forces 0.4–26 g) as previously described.[37]
In the first study, the effects of preventative treatment with 30-mg/kg L-006235 were studied. In the second study, the effects of preventative treatment with 30-mg/kg and 100-mg/kg L-006235 were studied. Rats received either vehicle (20% HP-β-CD) or L-006235 starting 1 day before MIA injection. L-006235 was administered orally twice a day for a total of 28 days (day −1 to 27 after MIA injection). Pain behaviour was measured at baseline before MIA injection and then twice a week until day 27. Pain behaviour was measured before the first dose of the day and was measured 24 hours after blood sampling (see below). In the third study, L-006235 was given once pain behaviour was established in the MIA model (therapeutic protocol). In this case, all rats received oral treatment with vehicle (twice daily) for the first 14 days after intra-articular injection of MIA. On day 14, half of the rats continued receiving vehicle and the other half received L-006235 (100 mg/kg) twice daily for 27 days (day 14–41 after MIA injection). As with the preventative study, pain behaviour was measured before the MIA injection and then twice a week until day 41 after injection. Similarly, behaviour was measured before rats received the first oral dose each day and was measured 24 hours after blood sampling (see below). See Table 1 for group sizes and Figure 1 for further study design.
All statistics were calculated using Prism 5.0 or 7.0 software (Graphpad, La Jolla, CA). Weight-bearing data were analysed with a 2-way analysis of variance (ANOVA) with a Bonferroni post hoc test. Hind PWTs were log-transformed before analysis with 2-way ANOVA with a Bonferroni post hoc test. Differences between the area under the curve for weight bearing and the log-transformed PWTs were analysed using a 1-way ANOVA. Data were considered significant if P values were less than 0.05. Differences in the expression of the cathepsin K mRNA between saline and MIA-injected rats, and the differences in GFAP immunoreactivity between L-006235 and vehicle-dosed MIA rats were compared with an unpaired t test. The statistical interaction between weight bearing and each OA feature (cartilage damage, osteophytes, or synovitis) was examined using a product term for Treatment Group*OA Pathology. Statistical significance of the interaction term provides a measure of the association between weight-bearing pain behaviour and OA pathology, and the effect of L-006235 on this association.

Series [2] can be described thus: Plasma pharmacokinetics of L-006235 after repeat oral dosing. Conditions: for AUC0–24 / Cmax / Tmax: second preventative study. The procedure:
Blood was collected from the L-006235–treated animals for bioanalysis of L-006235 on day 8, 22, and 27 after MIA induction in the first study, on day 9 and 27 after MIA induction in the second study and on day 40 after MIA induction in the third (therapeutic) study (app. 500 µL). Blood was collected through the tail vein at 1, 2, 3, 6, and 24 hours after the dose. In total, 1 to 3 blood samples were collected from each rat for bioanalysis of L-006235. In the first study, samples were collected on day 8 and on day 22 at 2 hours after dose, and a third sample was collected on day 27 at 24 hours after dose. In the second study, one sample was collected at 1, 3, or 6 hours after dose at the first sampling occasion (day 9), and a second sample was collected 2 hours after dose on day 27. In the third study, one sample was collected at 3, 6, or 24 hours after dose on day 40/41. Blood was collected from all animals into separate Li-heparin–coated tubes for plasma separation and placed in room temperature for at least 30 minutes and protected from light before centrifugation (10 minutes, 3600 rpm, at approximately 22°C) within 1 hour of collection. The plasma samples were immediately frozen and stored at minimum −20°C until analysis.
Bioanalysis of L-006235 in rat plasma was performed using protein precipitation followed by liquid chromatography-tandem mass spectrometry detection. Plasma (10 µL) was mixed with 50 µL of acetonitrile containing 100 nM of losartan and indinavir as internal standards. The sample was centrifuged at 20,000g for 10 minutes at 10°C, and the supernatant was diluted 1:1 with MilliQ water. Samples (5 μL) were injected onto the liquid chromatography-tandem mass spectrometry system. The lower limit of quantification (LLOQ) was 1 nM.
Pharmacokinetic (PK) data analysis was performed using the software Phoenix WinNonlin (version 6.4; Certara). Pharmacokinetic data for L-006235 were analysed using noncompartmental methodology, and the following PK parameters were reported: • (1) The area under the plasma concentration vs time curve from time 0 to time 24 hours (AUC0–24) was calculated by the log/linear trapezoidal method. The last sampling time point was 24 hours after dose. • (2) Maximal plasma concentration (Cmax). • (3) Time at maximal concentration (Tmax).

[3] abbreviates: MIA-injected rats, 30 mg/kg oral twice daily.
[4] abbreviates: MIA-injected rats, 100 mg/kg oral twice daily.
Where [5] appears, read: saline-injected rats, 100 mg/kg oral twice daily.

The term Cmax denotes the highest concentration seen after dosing. What is called Tmax is the time at which the peak concentration occurs.

SMILES strings stand for the structures.

Consider `CN1CCN(c2nc(-c3ccc(C(=O)NC4(C(=O)NCC#N)CCCCC4)cc3)cs2)CC1`, for which the MIA-induced weight-bearing asymmetry entry in series [1] (preventative 30 mg/kg oral twice daily, first preventative study, vs vehicle) is “significantly attenuated”. Also, the weight-bearing asymmetry result in series [1] (preventative 100 mg/kg oral twice daily, second preventative study, later time points, vs vehicle) was “nearly abolished”; in series [1] (preventative 30 and 100 mg/kg oral twice daily (both doses), second preventative study, from day 14 onwards) it was “consistently inhibited”. For the same molecule, in series [1] (preventative 30 and 100 mg/kg, second preventative study, day 3), the “early peak in weight-bearing asymmetry” value is listed as “neither dose of L-006235 altered”. Besides, the established weight-bearing asymmetry result in series [1] (therapeutic 100 mg/kg oral twice daily from day 14 to 41, vs MIA vehicle) is on record as “significant inhibitory effect”. The “AUC0–24” value in series [2] (setting [3]) worked out at 6.8 µM·h; in series [2] (setting [4]), 49 µM·h; in series [2] (setting [5]), 39 µM·h. For the same molecule, the Cmax in series [2] (setting [3]) was found to be 0.7 µM; in series [2] (setting [4]), 5.8 µM; in series [2] (setting [5]), 6.9 µM. The Tmax in series [2] (setting [3]), in series [2] (setting [4]) and in series [2] (setting [5]) was 1.0 h each time. Moreover, in series [2] (dose increased from 30 to 100 mg/kg oral twice daily), the “dose proportionality of plasma exposure” value is reported as “more than dose-proportional increase in exposure”.
